Assays:
Adenosine, A2 = Adenosine, A2 (UniProt P30543); assay: Adenosine, A2; [3H]CGS21680; format: binding; settings: read-out: Ref Kj
[1] = molecular target: Norepinephrine Transporter (Rattus norvegicus, UniProt Q9WTR4); assay: biochemical; format: binding
Serotonin Transporter = Serotonin Transporter (Rattus norvegicus, UniProt P31652); assay: biochemical; format: binding
Dopamine Transporter = Dopamine Transporter (Cavia porcellus, UniProt H0WCX4); assay: biochemical; format: binding, Guinea Pig
Adrenergic, Beta 1 = molecular target: T1, Adrenergic, Beta 1 (Homo sapiens, UniProt P08588); assay: Adrenergic, Beta 1 (Human Recombinant); [125I]Iodocyanopindolol; format: binding
T1 construct: expressed in transfected cells

Amino acid sequences for entries named in this document (tags omitted). Residues count along the entry.
UniProt P30543, whole entry: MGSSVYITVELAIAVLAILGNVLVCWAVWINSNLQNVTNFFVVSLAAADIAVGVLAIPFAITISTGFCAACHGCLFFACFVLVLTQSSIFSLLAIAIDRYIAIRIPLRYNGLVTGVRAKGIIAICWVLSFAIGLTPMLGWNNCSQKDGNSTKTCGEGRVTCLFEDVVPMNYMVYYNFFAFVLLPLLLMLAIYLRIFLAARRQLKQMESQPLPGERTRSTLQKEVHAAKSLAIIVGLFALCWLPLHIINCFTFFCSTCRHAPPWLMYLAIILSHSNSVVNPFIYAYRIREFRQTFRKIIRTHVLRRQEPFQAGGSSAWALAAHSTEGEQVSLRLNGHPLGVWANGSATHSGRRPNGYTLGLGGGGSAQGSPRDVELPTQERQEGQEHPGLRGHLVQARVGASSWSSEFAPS
UniProt Q9WTR4, 1-597: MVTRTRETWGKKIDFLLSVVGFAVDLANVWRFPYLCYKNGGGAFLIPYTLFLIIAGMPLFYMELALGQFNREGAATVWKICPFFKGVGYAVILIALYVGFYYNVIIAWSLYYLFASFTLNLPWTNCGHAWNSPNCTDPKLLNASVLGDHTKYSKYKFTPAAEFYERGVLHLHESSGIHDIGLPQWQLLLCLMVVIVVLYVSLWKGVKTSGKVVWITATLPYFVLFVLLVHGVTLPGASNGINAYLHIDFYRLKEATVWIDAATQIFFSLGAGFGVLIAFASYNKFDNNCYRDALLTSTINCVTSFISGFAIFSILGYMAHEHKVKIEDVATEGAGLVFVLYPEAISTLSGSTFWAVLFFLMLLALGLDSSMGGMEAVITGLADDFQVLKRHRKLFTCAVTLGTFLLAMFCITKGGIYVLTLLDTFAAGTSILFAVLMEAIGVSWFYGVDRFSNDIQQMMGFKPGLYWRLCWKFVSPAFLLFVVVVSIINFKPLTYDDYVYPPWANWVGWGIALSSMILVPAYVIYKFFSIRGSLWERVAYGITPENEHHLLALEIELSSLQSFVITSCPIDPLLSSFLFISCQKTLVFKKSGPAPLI
UniProt P31652, whole entry: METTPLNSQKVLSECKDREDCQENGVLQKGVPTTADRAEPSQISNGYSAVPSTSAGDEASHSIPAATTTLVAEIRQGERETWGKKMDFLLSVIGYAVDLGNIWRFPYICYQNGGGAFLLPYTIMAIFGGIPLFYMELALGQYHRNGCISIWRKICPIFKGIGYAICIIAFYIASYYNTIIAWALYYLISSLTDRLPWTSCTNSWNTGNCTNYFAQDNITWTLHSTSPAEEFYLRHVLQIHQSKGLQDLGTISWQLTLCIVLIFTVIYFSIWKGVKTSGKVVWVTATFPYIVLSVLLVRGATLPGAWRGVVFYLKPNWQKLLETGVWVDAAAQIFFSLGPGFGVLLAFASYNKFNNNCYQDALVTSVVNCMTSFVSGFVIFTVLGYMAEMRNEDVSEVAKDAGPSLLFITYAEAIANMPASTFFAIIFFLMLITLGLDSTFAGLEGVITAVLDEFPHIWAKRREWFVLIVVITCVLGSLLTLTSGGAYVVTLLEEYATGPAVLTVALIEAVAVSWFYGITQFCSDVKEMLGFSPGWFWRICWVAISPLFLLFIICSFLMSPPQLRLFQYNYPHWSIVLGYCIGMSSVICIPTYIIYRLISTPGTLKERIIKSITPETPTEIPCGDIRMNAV
UniProt H0WCX4, 1-619: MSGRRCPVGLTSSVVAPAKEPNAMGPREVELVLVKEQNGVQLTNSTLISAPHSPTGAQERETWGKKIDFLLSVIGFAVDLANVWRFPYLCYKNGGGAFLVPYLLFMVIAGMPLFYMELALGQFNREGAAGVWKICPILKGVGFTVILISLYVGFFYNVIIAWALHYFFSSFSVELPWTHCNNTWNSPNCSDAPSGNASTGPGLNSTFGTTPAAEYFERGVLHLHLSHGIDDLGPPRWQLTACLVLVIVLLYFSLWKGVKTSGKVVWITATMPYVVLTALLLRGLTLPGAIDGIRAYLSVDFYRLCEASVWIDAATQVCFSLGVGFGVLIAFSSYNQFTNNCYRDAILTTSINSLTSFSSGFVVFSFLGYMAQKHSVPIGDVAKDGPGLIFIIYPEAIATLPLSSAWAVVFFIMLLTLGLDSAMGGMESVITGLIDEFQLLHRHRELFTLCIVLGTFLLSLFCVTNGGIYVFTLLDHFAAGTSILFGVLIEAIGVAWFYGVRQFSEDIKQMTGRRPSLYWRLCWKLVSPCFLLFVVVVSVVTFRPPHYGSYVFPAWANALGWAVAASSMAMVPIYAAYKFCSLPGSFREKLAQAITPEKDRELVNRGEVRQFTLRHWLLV
UniProt P08588, whole entry: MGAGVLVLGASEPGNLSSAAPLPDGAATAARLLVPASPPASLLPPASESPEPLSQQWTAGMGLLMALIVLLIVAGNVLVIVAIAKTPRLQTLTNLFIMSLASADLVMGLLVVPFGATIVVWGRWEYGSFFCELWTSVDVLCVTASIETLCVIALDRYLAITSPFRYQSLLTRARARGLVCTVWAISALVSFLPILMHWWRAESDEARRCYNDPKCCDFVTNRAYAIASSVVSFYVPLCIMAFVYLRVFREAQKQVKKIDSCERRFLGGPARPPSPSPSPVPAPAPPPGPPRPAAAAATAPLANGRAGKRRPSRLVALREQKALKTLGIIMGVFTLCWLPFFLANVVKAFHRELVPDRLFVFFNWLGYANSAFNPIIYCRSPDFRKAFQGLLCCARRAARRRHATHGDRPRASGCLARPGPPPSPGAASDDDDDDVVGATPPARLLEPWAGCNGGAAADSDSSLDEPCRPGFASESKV
UniProt P30536, whole entry: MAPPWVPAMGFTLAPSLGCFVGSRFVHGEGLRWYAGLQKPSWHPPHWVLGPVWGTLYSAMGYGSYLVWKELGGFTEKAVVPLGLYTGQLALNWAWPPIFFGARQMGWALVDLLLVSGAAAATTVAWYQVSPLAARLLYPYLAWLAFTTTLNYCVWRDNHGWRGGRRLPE

[2] = molecular target: Benzodiazepine, peripheral (Homo sapiens, UniProt P30536); assay: biochemical; format: binding

Nc1nc(Cl)nc2c1ncn2[C@@H]1O[C@H](CO)[C@@H](O)[C@H]1O [2-Chloroadenosine (2-CADO), 2-Chloroadenosine]
Ki (Adenosine, A2): 0.0268 µM

COC(=O)[C@H]1[C@@H](OC(=O)c2ccccc2)C[C@@H]2CC[C@H]1N2C [cocaine]
Ki [1]: 1 µM | Ki (Serotonin Transporter): 0.352 µM

Fc1ccc(C(OCCN2CCN(CCCc3ccccc3)CC2)c2ccc(F)cc2)cc1
Ki (Dopamine Transporter): 0.0132 µM

C=CCc1ccccc1OCC(O)CNC(C)C (stereo not shown) [Alprenolol]
Ki (Adrenergic, Beta 1): 0.00104 µM

CNCCC(Oc1ccccc1OC)c1ccccc1 (stereo not shown) [[^3H]-Nisoxetine]
Kd [1]: 0.0009 µM

CCC(C)N(C)C(=O)c1cc2ccccc2c(-c2ccccc2Cl)n1 (stereo not shown) [PK 11195]
Ki [2]: 0.00184 µM

Reference: patent publication US20020187514A1 (priority 1999, published 2002)
